This note sets out measurements from patent US20260382605A1, “REVERSIBLE MACROCYCLIC KINASE INHIBITORS” (published 2026).

Amino acid sequences for entries named in this document (tags omitted). Residues count along the entry.
UniProt P06239, whole entry: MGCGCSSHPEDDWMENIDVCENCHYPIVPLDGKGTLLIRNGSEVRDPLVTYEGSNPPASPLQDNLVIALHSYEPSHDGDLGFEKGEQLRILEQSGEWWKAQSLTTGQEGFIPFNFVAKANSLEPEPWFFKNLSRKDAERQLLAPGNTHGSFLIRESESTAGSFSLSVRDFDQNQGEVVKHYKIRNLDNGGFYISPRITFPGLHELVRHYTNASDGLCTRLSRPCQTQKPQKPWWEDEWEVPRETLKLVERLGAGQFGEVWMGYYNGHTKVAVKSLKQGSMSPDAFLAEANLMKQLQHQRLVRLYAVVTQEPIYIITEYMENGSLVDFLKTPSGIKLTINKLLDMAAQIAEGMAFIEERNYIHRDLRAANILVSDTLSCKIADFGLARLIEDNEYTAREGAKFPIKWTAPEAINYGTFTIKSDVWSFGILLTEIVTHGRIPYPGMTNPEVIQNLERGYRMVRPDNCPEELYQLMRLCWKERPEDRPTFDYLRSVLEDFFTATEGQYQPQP
UniProt P22607, 436-806 limits assumed: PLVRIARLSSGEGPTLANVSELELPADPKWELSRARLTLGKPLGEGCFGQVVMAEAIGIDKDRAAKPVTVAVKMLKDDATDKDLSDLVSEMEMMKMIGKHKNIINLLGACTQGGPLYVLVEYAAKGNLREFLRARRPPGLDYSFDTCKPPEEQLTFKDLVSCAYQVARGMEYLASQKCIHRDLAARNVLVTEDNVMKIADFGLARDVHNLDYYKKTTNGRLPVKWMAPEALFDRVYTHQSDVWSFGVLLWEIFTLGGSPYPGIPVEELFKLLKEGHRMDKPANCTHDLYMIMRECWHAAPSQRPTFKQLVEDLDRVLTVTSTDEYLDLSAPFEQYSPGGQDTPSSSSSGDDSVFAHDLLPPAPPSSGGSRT
UniProt P11362, 398-822 limits assumed: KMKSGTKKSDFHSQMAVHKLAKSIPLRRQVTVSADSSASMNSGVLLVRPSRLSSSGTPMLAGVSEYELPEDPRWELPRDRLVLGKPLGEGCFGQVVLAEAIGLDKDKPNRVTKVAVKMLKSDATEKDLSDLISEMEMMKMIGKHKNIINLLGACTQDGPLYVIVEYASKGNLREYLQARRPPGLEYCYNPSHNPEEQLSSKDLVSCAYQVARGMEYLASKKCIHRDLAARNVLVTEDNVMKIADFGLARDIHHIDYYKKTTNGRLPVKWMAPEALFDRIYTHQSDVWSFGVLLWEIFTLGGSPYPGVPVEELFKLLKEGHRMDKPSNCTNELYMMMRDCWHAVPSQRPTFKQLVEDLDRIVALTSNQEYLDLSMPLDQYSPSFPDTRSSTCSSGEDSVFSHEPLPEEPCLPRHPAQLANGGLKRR
UniProt P00519, whole entry: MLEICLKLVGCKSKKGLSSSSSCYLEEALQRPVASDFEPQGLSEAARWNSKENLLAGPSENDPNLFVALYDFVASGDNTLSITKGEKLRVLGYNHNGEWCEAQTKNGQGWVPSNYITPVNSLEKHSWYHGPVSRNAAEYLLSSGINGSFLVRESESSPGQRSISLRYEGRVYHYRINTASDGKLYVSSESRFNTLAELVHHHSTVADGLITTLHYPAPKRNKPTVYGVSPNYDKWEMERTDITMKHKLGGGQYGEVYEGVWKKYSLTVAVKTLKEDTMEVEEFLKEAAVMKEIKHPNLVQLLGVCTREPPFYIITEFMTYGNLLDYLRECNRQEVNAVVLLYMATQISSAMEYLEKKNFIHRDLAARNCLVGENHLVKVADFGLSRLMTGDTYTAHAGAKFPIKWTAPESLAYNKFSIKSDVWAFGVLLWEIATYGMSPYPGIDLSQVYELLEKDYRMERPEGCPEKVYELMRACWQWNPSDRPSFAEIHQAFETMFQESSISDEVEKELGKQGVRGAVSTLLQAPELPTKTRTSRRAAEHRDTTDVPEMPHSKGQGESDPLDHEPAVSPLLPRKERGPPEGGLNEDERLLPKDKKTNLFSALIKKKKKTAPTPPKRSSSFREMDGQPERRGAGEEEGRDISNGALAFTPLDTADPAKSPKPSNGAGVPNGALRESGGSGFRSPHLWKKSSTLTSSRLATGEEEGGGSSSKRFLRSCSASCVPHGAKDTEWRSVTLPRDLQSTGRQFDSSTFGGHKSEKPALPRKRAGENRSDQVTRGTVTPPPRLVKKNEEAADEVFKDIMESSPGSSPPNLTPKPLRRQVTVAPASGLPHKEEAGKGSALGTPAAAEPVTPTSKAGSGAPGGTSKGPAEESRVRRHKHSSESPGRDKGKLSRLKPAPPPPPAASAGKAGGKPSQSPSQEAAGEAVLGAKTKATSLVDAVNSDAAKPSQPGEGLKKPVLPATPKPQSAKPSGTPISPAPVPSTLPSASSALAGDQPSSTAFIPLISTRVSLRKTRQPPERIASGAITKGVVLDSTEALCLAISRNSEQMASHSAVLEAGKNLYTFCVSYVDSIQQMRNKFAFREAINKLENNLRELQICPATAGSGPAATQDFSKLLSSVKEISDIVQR
UniProt P07947, whole entry: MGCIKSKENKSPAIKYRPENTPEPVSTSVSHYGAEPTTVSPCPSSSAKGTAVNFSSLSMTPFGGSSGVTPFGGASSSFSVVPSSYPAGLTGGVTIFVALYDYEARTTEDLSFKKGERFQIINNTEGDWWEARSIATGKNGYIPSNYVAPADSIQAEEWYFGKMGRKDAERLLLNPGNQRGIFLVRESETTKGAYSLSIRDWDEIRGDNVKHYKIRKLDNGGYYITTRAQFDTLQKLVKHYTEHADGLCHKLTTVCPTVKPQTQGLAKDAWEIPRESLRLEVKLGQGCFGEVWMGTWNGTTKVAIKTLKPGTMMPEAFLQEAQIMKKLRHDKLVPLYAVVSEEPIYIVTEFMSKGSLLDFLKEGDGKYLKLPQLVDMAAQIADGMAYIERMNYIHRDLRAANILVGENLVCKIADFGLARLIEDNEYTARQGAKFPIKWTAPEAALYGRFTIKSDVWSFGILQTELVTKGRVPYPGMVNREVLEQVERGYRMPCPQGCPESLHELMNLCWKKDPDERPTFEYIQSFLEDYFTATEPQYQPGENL
UniProt P12931, whole entry: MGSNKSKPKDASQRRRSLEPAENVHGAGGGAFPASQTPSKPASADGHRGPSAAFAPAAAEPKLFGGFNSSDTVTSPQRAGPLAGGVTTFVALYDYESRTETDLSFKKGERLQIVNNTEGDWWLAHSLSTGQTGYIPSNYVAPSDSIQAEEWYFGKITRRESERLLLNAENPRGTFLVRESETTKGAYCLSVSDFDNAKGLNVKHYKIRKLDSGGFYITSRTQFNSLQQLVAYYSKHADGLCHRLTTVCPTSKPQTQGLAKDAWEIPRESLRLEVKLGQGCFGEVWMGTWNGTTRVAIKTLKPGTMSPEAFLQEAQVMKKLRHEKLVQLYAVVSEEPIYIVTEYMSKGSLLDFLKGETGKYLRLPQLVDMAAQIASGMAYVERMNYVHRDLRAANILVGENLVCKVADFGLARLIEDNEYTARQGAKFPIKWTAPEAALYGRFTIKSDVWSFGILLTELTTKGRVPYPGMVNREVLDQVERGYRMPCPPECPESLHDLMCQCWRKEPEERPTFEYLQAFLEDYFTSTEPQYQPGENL
UniProt P30530, 26-894 limits assumed: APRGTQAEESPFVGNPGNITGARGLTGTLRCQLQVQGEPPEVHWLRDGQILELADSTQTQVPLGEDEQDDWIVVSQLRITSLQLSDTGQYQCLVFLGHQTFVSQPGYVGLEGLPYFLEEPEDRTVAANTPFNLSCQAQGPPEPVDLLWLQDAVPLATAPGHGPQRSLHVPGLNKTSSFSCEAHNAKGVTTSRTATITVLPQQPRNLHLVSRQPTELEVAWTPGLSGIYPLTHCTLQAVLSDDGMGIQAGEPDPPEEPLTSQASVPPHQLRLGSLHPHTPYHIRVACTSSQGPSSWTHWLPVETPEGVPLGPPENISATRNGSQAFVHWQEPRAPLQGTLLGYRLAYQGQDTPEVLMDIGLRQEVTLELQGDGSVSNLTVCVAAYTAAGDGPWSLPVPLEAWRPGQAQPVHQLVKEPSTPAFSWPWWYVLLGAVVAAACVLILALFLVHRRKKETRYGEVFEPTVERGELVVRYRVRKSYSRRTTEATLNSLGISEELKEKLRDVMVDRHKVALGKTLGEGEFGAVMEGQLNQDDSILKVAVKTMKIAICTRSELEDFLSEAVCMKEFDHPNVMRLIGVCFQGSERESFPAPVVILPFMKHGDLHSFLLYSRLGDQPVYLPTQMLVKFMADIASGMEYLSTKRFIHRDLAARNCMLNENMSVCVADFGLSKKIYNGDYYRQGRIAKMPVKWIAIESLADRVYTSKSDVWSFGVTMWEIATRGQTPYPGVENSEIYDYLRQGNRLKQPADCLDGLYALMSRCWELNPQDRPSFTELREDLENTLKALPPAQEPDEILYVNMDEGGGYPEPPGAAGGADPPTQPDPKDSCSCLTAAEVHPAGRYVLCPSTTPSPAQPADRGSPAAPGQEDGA
UniProt P00533, 25-1210 limits assumed: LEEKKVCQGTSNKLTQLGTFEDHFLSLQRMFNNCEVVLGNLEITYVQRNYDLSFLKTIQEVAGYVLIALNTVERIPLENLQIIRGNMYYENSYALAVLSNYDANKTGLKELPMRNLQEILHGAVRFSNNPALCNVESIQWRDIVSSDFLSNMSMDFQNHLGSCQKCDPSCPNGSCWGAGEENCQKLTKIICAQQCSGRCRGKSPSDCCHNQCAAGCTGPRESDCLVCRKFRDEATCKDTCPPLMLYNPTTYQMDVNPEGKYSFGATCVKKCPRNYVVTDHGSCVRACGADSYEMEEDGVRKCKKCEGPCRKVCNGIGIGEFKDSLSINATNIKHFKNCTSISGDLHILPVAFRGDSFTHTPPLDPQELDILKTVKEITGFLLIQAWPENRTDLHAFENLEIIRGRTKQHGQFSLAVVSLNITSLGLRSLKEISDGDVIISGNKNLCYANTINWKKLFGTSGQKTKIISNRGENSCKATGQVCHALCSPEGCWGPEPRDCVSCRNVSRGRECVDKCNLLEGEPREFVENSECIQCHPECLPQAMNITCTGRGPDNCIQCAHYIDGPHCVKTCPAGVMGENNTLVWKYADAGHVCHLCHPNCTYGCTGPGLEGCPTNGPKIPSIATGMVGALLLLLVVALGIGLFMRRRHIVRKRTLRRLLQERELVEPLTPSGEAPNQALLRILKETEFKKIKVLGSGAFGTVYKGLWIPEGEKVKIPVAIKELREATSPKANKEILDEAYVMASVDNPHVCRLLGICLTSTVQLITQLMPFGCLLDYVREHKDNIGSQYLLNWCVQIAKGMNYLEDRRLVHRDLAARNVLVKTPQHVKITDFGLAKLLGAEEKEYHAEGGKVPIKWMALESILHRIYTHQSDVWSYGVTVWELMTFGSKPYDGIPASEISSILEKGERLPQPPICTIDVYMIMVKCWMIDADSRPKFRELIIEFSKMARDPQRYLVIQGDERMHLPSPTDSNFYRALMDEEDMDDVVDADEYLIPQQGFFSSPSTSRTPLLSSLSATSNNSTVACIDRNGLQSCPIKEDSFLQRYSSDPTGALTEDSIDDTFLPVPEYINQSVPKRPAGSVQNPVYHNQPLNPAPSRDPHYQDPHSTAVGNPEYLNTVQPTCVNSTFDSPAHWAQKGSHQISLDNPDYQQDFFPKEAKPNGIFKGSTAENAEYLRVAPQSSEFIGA
UniProt P42680, whole entry: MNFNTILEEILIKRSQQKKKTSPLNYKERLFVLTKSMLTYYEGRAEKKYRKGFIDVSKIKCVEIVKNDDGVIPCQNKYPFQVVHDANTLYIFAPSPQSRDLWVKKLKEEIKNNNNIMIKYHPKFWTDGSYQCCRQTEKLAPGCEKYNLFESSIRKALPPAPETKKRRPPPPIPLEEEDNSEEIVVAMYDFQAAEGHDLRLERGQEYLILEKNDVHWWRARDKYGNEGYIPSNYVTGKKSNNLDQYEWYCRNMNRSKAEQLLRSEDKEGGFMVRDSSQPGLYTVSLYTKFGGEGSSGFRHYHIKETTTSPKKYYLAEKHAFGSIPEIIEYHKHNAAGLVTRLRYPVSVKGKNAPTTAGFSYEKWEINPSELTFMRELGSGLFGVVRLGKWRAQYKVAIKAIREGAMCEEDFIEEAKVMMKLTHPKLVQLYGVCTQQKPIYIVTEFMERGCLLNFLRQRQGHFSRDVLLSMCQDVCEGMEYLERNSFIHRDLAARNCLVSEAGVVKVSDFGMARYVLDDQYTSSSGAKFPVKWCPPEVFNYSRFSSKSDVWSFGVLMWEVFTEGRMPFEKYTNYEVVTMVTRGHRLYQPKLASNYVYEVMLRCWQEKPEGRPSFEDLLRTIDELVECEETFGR

Assay [1] deals with T1, LCK (Homo sapiens, UniProt P06239). The assay can be described thus: Biochemical kinase assay LCK (IMAP). Conditions: read-out: IC50 value; LCK 2.9 nM, 4 μM ATP, 1 h pre-incubation, 2 h reaction. How it is done: Biochemical Kinase Assay LCK
To determine the inhibitory activity of compounds on LCK enzyme activity, the IMAP® assay (Molecular Devices) was used. Compounds were serially diluted in dimethylsulfoxide (DMSO) and subsequently in 4% DMSO in IMAP reaction buffer, which consists of 10 mM Tris-HCl, pH 15 7.5, 10 mM MgCl2, 0.01% Tween-20, 0.1% NaN3 and 1 mM freshly prepared dithiotreitol (DTT). Compound solution was mixed with an equal volume of full-length Lck enzyme (Carna Biosciences, cat. no. 08-170) in IMAP reaction buffer. After pre-incubation of 1 hour in the dark at room temperature, fluorescein-labeled MBP-derived substrate peptide (Molecular Devices, cat. no. RP 7123) was added, followed by ATP to start the reaction. Final enzyme concentration was 2.9 nM final substrate concentration 100 nM, and final ATP concentration was 4 μM. The reaction was allowed to proceed for 2 hours at room temperature in the dark. The reaction was stopped by quenching with IMAP progressive binding solution according to the protocol of the manufacturer (Molecular Devices). Fluorescein polarization was measured on an Envision multimode reader (Perkin Elmer, Waltham, MA, U.S.A.). IC50 were calculated using XLfit™5 software (ID Business Solutions, Ltd., Surrey, U.K.).

Assay [2] deals with T1, LCK. The assay can be described thus: Binding kinetics assay (surface plasmon resonance) LCK. Conditions: SPR, 22 °C. The source says: (§1) Binding Kinetics Assay wt-BTK, BTK C481S, LCK, FGFR1, FLT3, PDGFR-β, FMS, LYN, MEK1, AUR-B. ITK. VEGFR, EGFR, FGFR3, AXL, c-MET, SRC, YES, ABL, RET and IGFR1 (Surface Plasmon Resonance)
(§2) Streptavidin-coated chips (Cat. No. BR100531), disposables and maintenance kits for Biacore were purchased from Cytiva (Eindhoven, The Netherlands). Biotinylated wt-BTK enzym (Carna Biosciences, cat. no. 08-480-20N), BTK C481S (Carna Biosciences, cat. no. 08-417-20N), LCK (Carna Biosciences, cat. no. 08-470-20N), FGFR1 (Carna Biosciences, cat. no. 08-435-20N), FLT3 (Carna Biosciences, cat. no. 08-454-20N), PDGFR-β (Carna Biosciences, cat. no. 08-458-20N), FMS (Carna Biosciences, cat. no. 08-455-20N), LYN (Carna Biosciences, cat. no. 08-471-20N), MEK1 (Carna Biosciences, cat. no. 07-441-10-20N), AUR-B (Carna Biosciences, cat. no. 05-402-21N), ITK (Carna Biosciences, cat. no. 08-481-20N), VEGFR (Carna Biosciences, cat. no. 08-491-20N), EGFR (Carna Biosciences, cat. no. 08-415-20N), FGFR3 (Carna Biosciences, cat. no. 08-433-20N), AXL (Carna Biosciences, cat. no. 08-407-20N), c-MET (Carna Biosciences, cat. no. 08-451-20N), SRC (Carna Biosciences, cat. no. 08-473-20N), YES (Carna Biosciences, cat. no. 08-475-20N), ABL (Carna Biosciences, cat. no. 08-401-20N), RET (Carna Biosciences, cat. no. 08-459-20N) or IGFR1 (Carna Biosciences, cat. no. 08-441-20N) were immobilized on a streptavidin-coated chip to a level of about 8000 resonance units (RU) using Biacore buffer (50 mM Tris pH 7.5, 0.05% (v/v) Tween-20, 150 mM NaCl and 5 mM MgCl2)+1 mM TCEP. Remaining streptavidin was blocked with biocytin. Immobilization was performed at 4 °C. Subsequent assay steps were conducted at 22 °C. After changing buffer to Biacore buffer with 1% (v/v) dimethylsulfoxide (DMSO), a pre-run was performed for a period of at least 30 min at a flow rate of 30 μl/min to obtain a stable surface. The kinetic constants of the compounds were determined with single cycle kinetics with five consecutive injections with an increasing compound concentration with ranges of 3.16-316 nM. Experiments were performed with an association time of 100 s per concentration and a dissociation time of 1200 s, except for compounds with a long target residence time, such as irreversible inhibitors, where dissociation time was increased. To circumvent problems of mass transport limitation, a flow rate of 30 μl/min was used. A blank run with the same conditions was performed before the compound was injected. The SPR sensorgrams were analyzed with Biacore Evaluation Software by using a method of double referencing. First the reference channel was subtracted from the channel containing immobilized protein. Subsequently, the reference curve obtained with buffer injections was subtracted. The resulting curve was fitted with a 1:1 binding model. Compounds that bound according to an induced fit model were fitted with a two-state reaction model. The kinetic constants (ka, ka, KD) of duplicates were geometrically averaged. Target residence time (τ) for the 1:1 binding model was calculated from the dissociation constant kd with the formula T=1/kd. Target residence for an induced fit model was calculated as described (Tummino and Copeland, 2008).
A general note: Surface plasmon resonance follows binding to a sensor surface in real time, without labels.

For a further assay, the target named is FGFR3 (Homo sapiens, UniProt P22607). The assay can be described thus: Binding kinetics assay (surface plasmon resonance) FGFR3. The following applies: FGFR3, SPR, 22 °C.
Excerpt: as §1, §2

In a further assay the target is FGFR1 (Homo sapiens, UniProt P11362). The experiment in a line: Binding kinetics assay (surface plasmon resonance) FGFR1. The following applies: FGFR1, SPR, 22 °C.
Excerpt: as §1
as §2, with “First the reference channel was subtracted from the channel containing immobilized protein. Subsequently, the reference curve obtained with buffer injections was subtracted. The resulting curve was fitted with a 1:1 binding model. Compounds that bound according to an induced fit model were fitted with a two-state reaction model. The kinetic constants (ka, ka, KD) of duplicates were geometrically averaged.” left out

The target in another assay is ABL (Homo sapiens, UniProt P00519). The experiment in a line: Binding kinetics assay (surface plasmon resonance) ABL. Conditions: SPR, 22 °C.
Excerpt: as §1
as §2, with “First the reference channel was subtracted from the channel containing immobilized protein. Subsequently, the reference curve obtained with buffer injections was subtracted. The resulting curve was fitted with a 1:1 binding model. Compounds that bound according to an induced fit model were fitted with a two-state reaction model. The kinetic constants (ka, ka, KD) of duplicates were geometrically averaged.” left out

The next assay has as its target YES (Homo sapiens, UniProt P07947). The assay can be described thus: Binding kinetics assay (surface plasmon resonance) YES. Conditions: SPR, 22 °C.
Excerpt: as §1, §2

The target in another assay is SRC (Homo sapiens, UniProt P12931). The experiment in a line: Binding kinetics assay (surface plasmon resonance) SRC. Conditions: SPR, 22 °C.
Excerpt: as §1, §2

Another assay has as its target AXL (Homo sapiens, UniProt P30530). The experiment in a line: Binding kinetics assay (surface plasmon resonance) AXL. Conditions: SPR, 22 °C.
Excerpt: as §1, §2

The target in another assay is EGFR (Homo sapiens, UniProt P00533). The experiment in a line: Binding kinetics assay (surface plasmon resonance) EGFR. The following applies: SPR, 22 °C.
Excerpt: as §1, §2

The target in a further assay is Tec (Homo sapiens, UniProt P42680). The experiment in a line: Binding kinetics assay TEC (surface plasmon resonance). Conditions: SPR, His-tagged TEC on Ni-NTA chip. The method, then: Binding Kinetics Assay TEC (Surface Plasmon Resonance)
An aliquot of N-terminal His-tagged TEC (Eurofins DiscoverX, cat. no. 14-801) was thawed, diluted to 4.8 μg/mL in pre-cooled Biacore buffer (10 mM Tris pH 7.5, 0.05% Tween, 150 mM NaCl and 5 mM MgCl2) and immobilized on a Ni-NTA chip with His-tag capturing, followed by amine-coupling. First, the surface of the chip was first washed for 420 seconds with 0.35 M EDTA, subsequently loaded with 1 mM NiCl for 420 seconds, followed by activation for 1000 seconds with a 1:1 dilution of 0.2 M 1-ethyl-3-(3-dimethylaminopropyl) carbodiimide hydrochloride (EDC) and 50 mM N-hydroxysuccinimide (NHS). His-tagged protein was immobilized on the surface until an immobilization level of 4000 RU was obtained. Remaining active groups on the sensor surface were blocked by injection of 1 M ethanolamine for 420 seconds. The immobilization procedure was performed at 22 °C. Channel 1 was immobilized as described above without injection of His-tagged protein and used as a reference channel to correct for buffer effects, other channels were immobilized as described above. After immobilization, buffer was changed to Biacore buffer containing 1% DMSO. A pre-run was performed for a period of ≥30 min at a flow rate of 30 μL/min until a stable surface was obtained. The kinetic constants of the compounds were determined with single cycle kinetics with five consecutive injections with an increasing compound concentration with ranges of 3.16-316 nM. Experiments were performed with an association time of 100 s per concentration and a dissociation time of 1200 s, except for compounds with a long target residence time, such as irreversible inhibitors, where dissociation time was increased. To circumvent problems of mass transport limitation, a flow rate of 30 μl/min was used. A blank run with the same conditions was performed before the compound was injected. The SPR sensorgrams were analyzed with Biacore Evaluation Software by using a method of double referencing. First the reference channel was subtracted from the channel containing immobilized protein. Subsequently, the reference curve obtained with buffer injections was subtracted. The resulting curve was fitted with a 1:1 binding model. Compounds that bound according to an induced fit model were fitted with a two-state reaction model. The kinetic constants (ka, […], KD) of duplicates were geometrically averaged. Target residence time (τ) for the 1:1 binding model was calculated from the dissociation constant kd with the formula T=1/kd. Target residence for an induced fit model was calculated as described (Tummino and Copeland, 2008).

In assay [3] the test system is REC-1 mantle cell lymphoma cells. The experiment in a line: Cell proliferation assay REC-1. Conditions: read-out: IC50 value, REC-1 cells, 120 hours. The method, then:
REC-1 mantle cell lymphoma cells were purchased from Deutsche Sammlung von Mikroorganismen und Zellkulturen (cat. no. ACC 584, DSMZ) and cultured in RPMI-1640 cell culture medium (cat. no. 61870036, Life Technologies), supplemented with 18% (v/v) fetal bovine calf serum and 1% penicillin/streptavidin. 1200 cells per well (in 45 μl) were seeded in a white 384-well culture plate (cat. no. 781080, Greiner Bio-One) and allowed to rest for at least 5 hours at 37 °C, 95% humidity, and 5% CO2. 5 μl compound solution was added to the cells and incubation was continued for 120 hours (5 days), followed by addition of 24 μl ATPlite 1Step™ (PerkinElmer, Groningen, The Netherlands) solution was added to each well. Luminescence was recorded on an Envision multimode reader. The cell signal at the start of incubation was recorded separately in order to distinguish between cell population growth and cell death. In addition, maximum growth was determined by incubation of a duplicate without compound in the presence of 0.3% DMSO. Percentage growth was used as the main y-axis signal. IC50s were fitted by non-linear regression using IDBS XLfit™5 using a 4-parameter logistic curve, yielding a maximum signal, minimum signal, hill-parameter and IC50.

Take `COc1cc(-c2nc3n4c(cnc(C)c24)/C=C/CCOCCC(=O)N[C@@H]2CC[C@@H]3C2)ccc1NC(=O)c1cc2c(OC)cccc2n1C`: the IC50 (usually the concentration that gives 50% inhibition) on LCK [1] was less than 5 nM. The equilibrium dissociation constant (Kd) (commonly a measure of binding affinity in units of concentration) on LCK [2] was less than 5 nM.

As for `COc1cc(C#Cc2nn3c4c(cnc(N)c24)/C=C/CCCCCC(=O)N[C@@H]2CCC[C@@H]3C2)cc(OC)c1`, the Kd at FGFR3 and at FGFR1 was 5 to 50 nM in each case. Further, the “Target residence time Tau (τ)” value on FGFR3 is “A (τ between 0.2 h and 1 h)”; at FGFR1, “A (τ between 0.2 h and 1 h)”.

Regarding `COc1cc(-c2nn3c4c(cnc(N)c24)/C=C/CCCCCC(=O)N[C@H](C)CC3)ccc1NC(=O)OC(C)(C)C`, the equilibrium dissociation constant (Kd) on ABL was less than 5 nM; on YES it was 50 to 500 nM; on LCK [2], less than 5 nM; on SRC, less than 5 nM; at AXL, less than 5 nM; on EGFR, 5 to 50 nM. The “Target residence time Tau (τ)” value on ABL is “B (τ between 1 and 3 h)”; on YES, “A (τ between 0.2 h and 1 h)”; at LCK [2], “B (τ between 1 and 3 h)”; at SRC, “B (τ between 1 and 3 h)”; at AXL, “B (τ between 1 and 3 h)”; on EGFR, “A (τ between 0.2 h and 1 h)”.

With `C[C@@H]1CC(=O)N[C@@H]2CCC[C@H](C2)n2nc(-c3ccc(C(=O)Nc4cc(C(F)(F)F)ccn4)cc3)c3c(N)ncc(c32)/C=C/CCN1C`, at Tec, the Kd is less than 5 nM; the “Target residence time Tau (τ)” value is “A (τ between 0.2 h and 1 h)”. Also, the IC50 in assay [3] is less than 50 nM. Further, at EGFR, the Kd is less than 5 nM; the “Target residence time Tau (τ)” value was “A (τ between 0.2 h and 1 h)”.

As for `COc1cc(C#Cc2nn3c4c(cnc(N)c24)/C=C/CCOCCC(=O)N[C@@H]2CCC[C@@H]3C2)cc(OC)c1`, the dissociation constant Kd was 5 to 50 nM on FGFR3 and less than 5 nM on FGFR1. Further, the “Target residence time Tau (τ)” value at FGFR3 was “A (τ between 0.2 h and 1 h)”; on FGFR1, “A (τ between 0.2 h and 1 h)”.

Regarding `COc1cc(-c2nn3c4c(cnc(N)c24)/C=C/CCOCCC(=O)N[C@H](C)CC3)ccc1NC(=O)OC(C)(C)C`, the Kd on ABL is less than 5 nM; at LCK [2], less than 5 nM; on SRC it was 5 to 50 nM; on AXL it was 5 to 50 nM; on EGFR, 5 to 50 nM. Also, the “Target residence time Tau (τ)” value on ABL is “B (τ between 1 and 3 h)”; on LCK [2] it was “A (τ between 0.2 h and 1 h)”; on SRC it was “A (τ between 0.2 h and 1 h)”; on AXL, “A (τ between 0.2 h and 1 h)”; at EGFR, “A (τ between 0.2 h and 1 h)”.

`COc1cc(-c2nc3n4c(cnc(N)c24)/C=C/CCOCCC(=O)N[C@@H]2CC[C@@H]3C2)ccc1NC(=O)c1cc2c(OC)cccc2n1C`: the concentration for half-maximal inhibition (IC50) on LCK [1] is less than 5 nM. The Kd on LCK [2] is less than 5 nM.
